Values joined by “and” are separate entries in the source; they are usually repeats but may differ in a detail not shown here. Equal values may be shown once. Read-outs that look alike come from different tables or passages of the source.
Experiments:
[1] = system: Marine ostracod crustacean luciferase
[2] = system: Marine ostracod crustacean luciferase; experiment: Measurement of luminescence spectra of marine ostracod crustacean luciferins with luciferase; format: biochemical; details: Test Example 1
[3] = system: Marine ostracod crustacean luciferase; details: for Biological luminescence (count): luciferase 5 ng/mL
[4] = molecular target: luciferase of marine ostracod crustacean (Vargula hilgendorfii, UniProt P17554); details: oxidation reaction catalysed by luciferase; background art; cited from earlier work
[5] = system: Marine ostracod crustacean luciferase; remark: listed apart in the source
[6] = molecular target: BSA (Bos taurus, UniProt P02769); details: for Luminescence background (count): luciferin 1 μM
[7] = 100 mM Tris-HCl (pH 7.5)/1% BSA, no antioxidant
[8] = 100 mM Tris-HCl (pH 7.5)/1% BSA/0.3M sodium ascorbate
[9] = 100 mM Tris-HCl (pH 7.5)/1% BSA/0.3M sodium ascorbate/0.02M Na2SO3
[10] = 24 hours after addition, room temperature, 100 mM Tris-HCl (pH 7.5)/0.3M NaCl
[11] = 24 hours after addition, room temperature, 100 mM Tris-HCl/0.3M sodium ascorbate

By UniProt entry, the sequences of proteins in these tests, tags left out. Residues count along the entry.
UniProt P17554, 12-555: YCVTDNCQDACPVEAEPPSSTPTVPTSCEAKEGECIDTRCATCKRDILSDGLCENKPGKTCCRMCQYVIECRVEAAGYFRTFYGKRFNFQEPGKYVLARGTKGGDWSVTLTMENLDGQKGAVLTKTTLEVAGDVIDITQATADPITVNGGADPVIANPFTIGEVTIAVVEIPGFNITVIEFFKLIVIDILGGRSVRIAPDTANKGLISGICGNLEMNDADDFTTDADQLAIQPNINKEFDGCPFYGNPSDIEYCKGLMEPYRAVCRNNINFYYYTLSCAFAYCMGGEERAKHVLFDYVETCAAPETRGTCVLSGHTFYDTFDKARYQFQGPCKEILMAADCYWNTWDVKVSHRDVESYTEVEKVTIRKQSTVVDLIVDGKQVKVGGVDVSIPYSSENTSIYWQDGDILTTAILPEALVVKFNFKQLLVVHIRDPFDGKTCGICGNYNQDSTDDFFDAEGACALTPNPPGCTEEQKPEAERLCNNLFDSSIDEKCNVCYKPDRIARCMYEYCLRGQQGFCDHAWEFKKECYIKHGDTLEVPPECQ
UniProt P02769, 25-607: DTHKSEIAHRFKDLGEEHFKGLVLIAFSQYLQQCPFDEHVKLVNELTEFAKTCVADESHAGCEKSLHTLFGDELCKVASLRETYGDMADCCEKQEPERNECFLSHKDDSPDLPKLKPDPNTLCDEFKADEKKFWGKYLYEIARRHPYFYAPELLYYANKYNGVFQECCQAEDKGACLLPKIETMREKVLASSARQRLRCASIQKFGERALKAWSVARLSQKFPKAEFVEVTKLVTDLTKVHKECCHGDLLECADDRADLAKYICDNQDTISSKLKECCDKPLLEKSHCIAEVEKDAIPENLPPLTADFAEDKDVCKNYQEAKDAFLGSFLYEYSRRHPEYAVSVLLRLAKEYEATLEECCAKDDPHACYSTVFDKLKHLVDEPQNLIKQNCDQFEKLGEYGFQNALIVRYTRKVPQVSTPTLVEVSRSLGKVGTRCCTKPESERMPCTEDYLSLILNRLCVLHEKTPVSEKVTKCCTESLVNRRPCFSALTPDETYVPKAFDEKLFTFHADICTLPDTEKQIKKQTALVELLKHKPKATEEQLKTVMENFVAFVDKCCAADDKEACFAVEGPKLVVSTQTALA

Compound: CC[C@H](C)c1nc2c(CCCNC(=N)N)[nH]c(-c3c[nH]c4ccccc34)cn-2c1=O [Compound 11, marine ostracod crustacean luciferin]
- Biological luminescence after 0 hour (count) ([1]; 100 mM Tris-HCl/0.3M sodium ascorbate/0.02M Na2SO3, luciferin 1 μM, luciferase 5 ng/mL): 49603053 count
- Biological luminescence after 24 hour (count) ([1]; left at room temperature for 24 hours, 100 mM Tris-HCl/0.3M sodium ascorbate/0.02M Na2SO3): 49513568 count
- activity compared with native luciferin [2]: equivalent to that of native luciferin
- B/A [3, 7]: 4382
- Biological luminescence (count) [3, 7]: 49159227 count
- B/A [3, 8]: 30306
- B/A [3, 9]: 60320
- Biological luminescence (count) [3, 9]: 55916914 count
- Biological luminescence (count) [3, 8]: 48187479 count
- maximum luminescence wavelength [4]: 460 nm
- Biological luminescence (count) ([5]; 24 hours after addition, room temperature, 100 mM Tris-HCl (pH 7.5)): 212353 count and 227062 count
- B/A [5, 10]: 5554 and 4304
- Biological luminescence (count) [5, 10]: 794325 count and 783359 count
- B/A [5, 11]: 158607 and 194132
- Biological luminescence (count) [5, 11]: 32355906 count and 30478724 count
- improvement of S/N ([5]; buffer system containing sodium ascorbate (Table 1)): at least 16 times
- B/A ([5]; immediately after addition, 100 mM Tris-HCl (pH 7.5)): 13565 and 13945
- B/A ([5]; immediately after addition, 100 mM Tris-HCl (pH 7.5)/0.3M NaCl): 7862 and 8128
- Biological luminescence (count) ([5]; immediately after addition, 100 mM Tris-HCl (pH 7.5)/0.3M NaCl, luciferin 1 μM, luciferase 5 ng/mL): 38315442 count and 36058420 count
- Biological luminescence (count) ([5]; immediately after addition, 100 mM Tris-HCl (pH 7.5), luciferin 1 μM, luciferase 5 ng/mL, 10 seconds): 35961958 count and 36328201 count
- B/A ([5]; immediately after addition, 100 mM Tris-HCl/0.3M sodium ascorbate): 269341 and 224690
- Biological luminescence (count) ([5]; immediately after addition, 100 mM Tris-HCl/0.3M sodium ascorbate, luciferin 1 μM, luciferase 5 ng/mL): 43364001 count and 43814730 count
- Luminescence background (count) [6, 7]: 11216 count
- Luminescence background (count) [6, 9]: 927 count
- Luminescence background (count) [6, 8]: 1590 count
- Luminescence background (count) [10]: 143 count and 182 count
- Luminescence background (count) [11]: 204 count and 157 count
- Luminescence background (count) (immediately after addition, 100 mM Tris-HCl (pH 7.5)/0.3M NaCl, luciferin 1 μM, 10 seconds): 4873 count and 4436 count
- Luminescence background (count) (immediately after addition, 100 mM Tris-HCl (pH 7.5), luciferin 1 μM, 10 seconds): 2651 count and 2605 count
- Luminescence background (count) (immediately after addition, 100 mM Tris-HCl/0.3M sodium ascorbate, luciferin 1 μM, 10 seconds): 161 count and 195 count

Compound: marine ostracod crustacean luciferin [Compound 11]
- stability at room temperature compared with buffer containing 0.3 M sodium ascorbate alone ([1]; 100 mM Tris-HCl buffer (pH 7.5) containing 0.3 M sodium ascorbate and 0.02 M Na2SO3, 24 hours): further enhanced
- improvement of S/N ratio ([3]; 1% BSA, 100 mM Tris-HCl buffer containing 0.3 M sodium ascorbate and 0.02 M Na2SO3): about 14 times
- stability at room temperature ([5]; 100 mM Tris-HCl buffer (pH 7.5) containing 0.3 M sodium ascorbate, 24 hours): stable at room temperature
- reduction of luminescence background due to BSA ([6]; 100 mM Tris-HCl buffer containing 0.3 M sodium ascorbate and 0.02 M Na2SO3): about 10 times
